Tests used:
Type in all cases: biochemical
[1] = biological target: T1, PARP-1 enzyme (Homo sapiens, UniProt P09874); assay: In vitro filtration assay for PARP-1 inhibitory activity; details: [32P]-NAD, histones, nicked DNA
[2] = biological target: T1, PARP-1 enzyme; assay: In vitro scintillation proximity assay (SPA) for PARP-1 inhibitory activity; details: [3H]-NAD+, biotinylated histones, nicked DNA
[3] = biological target: TANK-2 enzyme (Homo sapiens, UniProt Q9H2K2); assay: In vitro scintillation proximity assay (SPA) for TANK-2 inhibitory activity; details: auto-poly(ADP-ribosyl)ation, [3H]-NAD+; 96-well results if available, otherwise 384-well
Method: In Vitro Scintillation Proximity Assay (SPA) for TANK-2 Inhibitory Activity
Compounds of the present invention were tested in an in vitro assay based on SPA technology with Ni Flash plates (96 or 384 well).
In principle, the assay relies upon SPA technology for the detection of auto-poly(ADP-ribosyl)ation of TANK-2 protein using [^3H]-nicotinamide adenine dinucleotide ([^3H]-NAD^+) as ADP-ribosyl donor.
A stock solution of [^3H]-NAD^+/NAD was made by adding 64.6 μl of [^3H]-NAD^+ (0.1 mCi/ml, supplier: Perkin Elmer) and 46.7 μl NAD-stock (10.7 mM, stored at −20° C., supplier Roche) to 1888.7 μl assay buffer (60 mM Tris/HCl, pH 7.4; 0.9 mM DTT; 6 mM MgCl2). The TANK-2 enzyme was produced as described in EP1238063. 60 μl of assay buffer, together with 1 μl of compound in DMSO, 20 μl of [^3H]-NAD^+/NAD and 20 μl of TANK-2 enzyme (final concentration 6 μg/ml) was added per well into a 96-well Ni-coated flash plate (Perkin Elmer). After incubation of the mixture for 120 min. at room temperature, the reaction was terminated by adding 60 μl of stopsolution (42.6 mg NAD in 6 ml H2O). […] Values were expressed as counts per minute (cpm). […] For each sample, the amount of cpm was expressed as a percentage of the mean cpm value of the controls. […] Herein the effects of test compounds are expressed as pIC50 (the negative log value of the IC50-value). […]

Amino acid sequences for entries named in this document (tags omitted). A change or cut given only in a name is not applied to a line headed by its entry.
UniProt P09874, whole entry, looked up: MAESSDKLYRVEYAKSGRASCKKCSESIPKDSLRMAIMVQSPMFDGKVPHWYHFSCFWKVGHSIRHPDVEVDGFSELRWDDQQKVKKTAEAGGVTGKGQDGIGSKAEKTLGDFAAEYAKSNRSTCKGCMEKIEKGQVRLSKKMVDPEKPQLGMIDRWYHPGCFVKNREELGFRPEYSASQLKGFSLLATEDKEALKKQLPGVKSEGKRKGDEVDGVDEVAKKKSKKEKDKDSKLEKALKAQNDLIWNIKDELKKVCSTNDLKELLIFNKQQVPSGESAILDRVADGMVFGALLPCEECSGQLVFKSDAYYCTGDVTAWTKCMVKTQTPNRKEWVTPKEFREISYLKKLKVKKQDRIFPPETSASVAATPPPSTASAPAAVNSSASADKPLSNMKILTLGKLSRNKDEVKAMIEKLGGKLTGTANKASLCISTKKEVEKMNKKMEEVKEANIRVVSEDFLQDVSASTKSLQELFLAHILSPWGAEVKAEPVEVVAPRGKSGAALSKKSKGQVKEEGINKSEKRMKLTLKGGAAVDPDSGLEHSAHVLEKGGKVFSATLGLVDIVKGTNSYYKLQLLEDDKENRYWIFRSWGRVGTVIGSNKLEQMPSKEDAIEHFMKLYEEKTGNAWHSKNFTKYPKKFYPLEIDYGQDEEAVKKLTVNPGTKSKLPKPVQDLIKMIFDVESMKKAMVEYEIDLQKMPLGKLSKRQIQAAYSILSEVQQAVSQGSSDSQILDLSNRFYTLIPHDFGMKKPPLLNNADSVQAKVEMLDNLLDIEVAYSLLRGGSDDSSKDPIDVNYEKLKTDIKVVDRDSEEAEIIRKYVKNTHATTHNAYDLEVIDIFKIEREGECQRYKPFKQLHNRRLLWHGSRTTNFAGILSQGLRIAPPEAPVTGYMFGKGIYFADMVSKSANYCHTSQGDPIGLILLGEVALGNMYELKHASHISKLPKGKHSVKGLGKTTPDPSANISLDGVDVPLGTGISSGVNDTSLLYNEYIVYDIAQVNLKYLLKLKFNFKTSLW
UniProt Q9H2K2: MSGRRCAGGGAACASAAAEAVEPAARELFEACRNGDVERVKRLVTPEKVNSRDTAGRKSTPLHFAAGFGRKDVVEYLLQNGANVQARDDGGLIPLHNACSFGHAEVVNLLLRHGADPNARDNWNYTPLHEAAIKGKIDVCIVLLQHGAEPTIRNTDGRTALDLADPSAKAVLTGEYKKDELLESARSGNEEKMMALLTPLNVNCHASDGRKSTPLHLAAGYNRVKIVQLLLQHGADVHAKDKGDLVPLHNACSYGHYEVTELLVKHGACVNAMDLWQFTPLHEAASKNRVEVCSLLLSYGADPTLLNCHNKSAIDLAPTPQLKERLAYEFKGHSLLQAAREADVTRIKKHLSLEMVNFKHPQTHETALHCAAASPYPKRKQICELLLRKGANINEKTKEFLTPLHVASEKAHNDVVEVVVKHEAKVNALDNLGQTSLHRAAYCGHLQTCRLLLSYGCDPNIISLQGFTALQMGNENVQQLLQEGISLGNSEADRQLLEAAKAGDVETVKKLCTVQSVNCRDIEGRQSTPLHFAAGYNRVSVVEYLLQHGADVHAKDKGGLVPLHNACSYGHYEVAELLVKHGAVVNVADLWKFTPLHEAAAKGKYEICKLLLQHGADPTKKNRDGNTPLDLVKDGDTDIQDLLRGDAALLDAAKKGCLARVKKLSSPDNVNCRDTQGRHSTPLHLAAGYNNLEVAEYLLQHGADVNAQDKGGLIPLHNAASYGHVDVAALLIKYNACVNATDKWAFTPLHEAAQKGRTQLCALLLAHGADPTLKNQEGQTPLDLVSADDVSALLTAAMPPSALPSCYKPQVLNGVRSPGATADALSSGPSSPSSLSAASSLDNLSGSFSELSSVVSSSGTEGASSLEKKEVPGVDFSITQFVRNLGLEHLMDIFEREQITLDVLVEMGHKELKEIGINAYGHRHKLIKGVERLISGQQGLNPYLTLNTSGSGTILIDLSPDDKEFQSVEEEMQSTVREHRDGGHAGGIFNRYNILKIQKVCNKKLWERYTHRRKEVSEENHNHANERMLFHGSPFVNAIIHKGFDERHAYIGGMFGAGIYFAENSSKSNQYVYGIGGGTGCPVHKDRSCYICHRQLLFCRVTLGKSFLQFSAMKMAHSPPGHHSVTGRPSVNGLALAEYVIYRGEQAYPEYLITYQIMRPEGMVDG

O=c1[nH]c(=O)n(C2CCN(CCn3c(=O)[nH]c4ccccc4c3=O)CC2)c2ccccc12
in vitro filter assay PARP-1 pIC50 [1]: 5.642
in vitro SPA assay PARP-1 pIC50 [2]: 6.257
in vitro SPA assay TANK-2 pIC50 [3]: 5.158

Reference: patent US9255080B2, “Quinazolinedione derivatives as PARP inhibitors” (Janssen Pharmaceutica NV, priority 2004, dated 2016)
